Assay [1] deals with T1, MOR (Mus musculus, UniProt P42866). The assay can be described thus: biochemical. It counts as biochemical.
Assay [2] concerns the target T1, MOR. Put plainly: biochemical.

Amino acid sequences for entries named in this document (tags omitted).
UniProt P42866, whole entry: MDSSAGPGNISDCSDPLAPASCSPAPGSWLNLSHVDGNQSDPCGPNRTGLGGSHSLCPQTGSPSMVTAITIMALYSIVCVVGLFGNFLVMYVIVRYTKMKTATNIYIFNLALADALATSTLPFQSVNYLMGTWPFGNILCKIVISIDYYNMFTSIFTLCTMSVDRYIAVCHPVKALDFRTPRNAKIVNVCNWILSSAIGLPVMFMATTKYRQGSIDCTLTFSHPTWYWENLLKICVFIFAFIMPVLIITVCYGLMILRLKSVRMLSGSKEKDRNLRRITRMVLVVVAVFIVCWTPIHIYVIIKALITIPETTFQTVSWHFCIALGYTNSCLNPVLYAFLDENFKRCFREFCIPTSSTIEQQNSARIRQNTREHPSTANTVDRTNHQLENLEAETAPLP

Each structure is given as a SMILES string. Where a name gives a salt, the structure may show the parent alone.

In the case of `CN1CC[C@]23c4c5ccc(O)c4O[C@H]2[C@@H](O)C=C[C@H]3[C@H]1C5` [morphine, Morphine sulfate pentahydrate], the maximum response (Emax) (commonly the greatest response seen or fitted, relative to the assay's reference) on MOR [1] is ~50%.

Regarding `COc1ccsc1CNCC[C@@]1(c2ccccn2)CCOC2(CCCC2)C1` [oliceridine, Oliceridine hydrochloride], inhibition on MOR [2] was half-maximal at 203 nM (IC50). Also, at MOR [1], the EC50 entry is “not converged”.

These data come from article PMC10295947 (Biomolecules, 2023).
